Data on three compounds can be found in ChEMBL document CHEMBL1147677, “Synthesis and biological evaluation of glycosidase inhibitors: gem-difluoromethylenated nojirimycin analogues” (J Med Chem, 2006).

For test [1], the target named is T1, Tissue alpha-L-fucosidase (Homo sapiens, UniProt P04066).
T1 sequence (P04066 whole entry): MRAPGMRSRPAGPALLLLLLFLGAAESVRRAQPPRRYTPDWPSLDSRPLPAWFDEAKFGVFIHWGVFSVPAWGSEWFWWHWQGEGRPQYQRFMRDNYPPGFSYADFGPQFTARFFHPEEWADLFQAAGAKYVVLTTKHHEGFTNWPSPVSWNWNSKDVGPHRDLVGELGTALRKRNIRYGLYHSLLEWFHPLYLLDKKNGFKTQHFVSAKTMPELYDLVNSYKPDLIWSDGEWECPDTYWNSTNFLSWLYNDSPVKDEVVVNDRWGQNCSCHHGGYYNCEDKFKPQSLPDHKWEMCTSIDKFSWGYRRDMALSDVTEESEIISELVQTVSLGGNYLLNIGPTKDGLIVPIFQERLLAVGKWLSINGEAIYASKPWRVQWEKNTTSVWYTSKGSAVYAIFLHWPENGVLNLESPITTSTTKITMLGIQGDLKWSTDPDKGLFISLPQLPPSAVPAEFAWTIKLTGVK
The test can be described thus: Inhibition of human placenta alpha fucosidase at pH 6.8. An outline of the steps:
(§1)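 Nitrophenyl glycoside substrate hydrolysis in 0.1 M sodium phosphate, pH 6.8, 25 °C. Seven cuvettes hold a fixed inhibitor concentration and seven hold none, each across varying substrate levels. The reaction is started with diluted enzyme, and 4- or 2-nitrophenol release is followed at 400 nm for 2 min. Ki = [I]/(KM′/KM − 1) from KM with and without inhibitor.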

Test [2] deals with T2, Tissue alpha-L-fucosidase (Bos taurus, UniProt Q2KIM0).
T2 sequence (Q2KIM0 whole entry): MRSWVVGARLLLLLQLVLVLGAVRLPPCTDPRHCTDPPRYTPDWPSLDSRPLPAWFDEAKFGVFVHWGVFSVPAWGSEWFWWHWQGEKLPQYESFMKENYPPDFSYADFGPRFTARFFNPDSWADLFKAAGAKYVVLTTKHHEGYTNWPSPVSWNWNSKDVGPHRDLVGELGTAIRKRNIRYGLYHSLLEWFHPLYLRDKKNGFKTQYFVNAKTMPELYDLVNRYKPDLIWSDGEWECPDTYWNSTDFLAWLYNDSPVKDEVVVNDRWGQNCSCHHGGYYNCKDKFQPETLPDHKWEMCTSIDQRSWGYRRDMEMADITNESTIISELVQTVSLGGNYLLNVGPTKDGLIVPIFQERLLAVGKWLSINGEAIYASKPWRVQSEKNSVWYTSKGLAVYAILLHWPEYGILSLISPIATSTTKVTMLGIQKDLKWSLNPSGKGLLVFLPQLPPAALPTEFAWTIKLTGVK
The test can be described thus: Inhibition of bovine kidney alpha fucosidase at pH 6.8. An outline of the steps:
as §1

The structures appear in SMILES notation. pKi: −log10 of the molar value.

Consider `OC[C@H]1NC[C@H](O)[C@@H](O)C1(F)F`, for which the pKi in test [1] and in test [2] was below 3.00 in each case.

Take `OC[C@H]1NC[C@@H](O)[C@@H](O)C1(F)F`: the pKi in test [1] and in test [2] was below 3.00 each time.

Regarding `OC[C@@H]1NC[C@@H](O)[C@@H](O)C1(F)F`, the pKi in test [1] and in test [2] was below 3.00 each time.

One may read the pKi as the Ki on a negative log10 scale, so that one unit is a factor of ten. A lower pKi goes with a large Ki.
